Key:
[1] = Determination of the solubility of calcium ortho-aminobenzoate in water; type: physicochemical; conditions: stirred at room temperature for 10 min
Procedure: 3.00 g of dried calcium ortho-aminobenzoate was stirred into 100 mL of demineralized water and stirred at room temperature for 10 min. Subsequently, the concentration of dissolved ortho-aminobenzoic acid was determined in the aqueous phase. The latter was 17.0 g/L.
3.00 g of dried calcium ortho-aminobenzoate was stirred into 50 mL of demineralized water and stirred at room temperature for 10 min. Subsequently, the concentration of dissolved ortho-aminobenzoic acid was determined in the aqueous phase. The latter was 17.5 g/L.

[2] = Formation of insoluble calcium ortho-aminobenzoate with calcium chloride at pH 7.0; dissolved ortho-aminobenzoic acid measured in the aqueous phase; type: physicochemical; conditions: 48.0 g CaCl2, pH 7.0, 100 g ortho-aminobenzoic acid added
Procedure: 48.0 g of anhydrous calcium chloride was added to 1.00 L of fermentation broth. The pH was adjusted to a value of 7.0 by adding hydrochloric acid. 100 g of ortho-aminobenzoic acid (dissolved in sodium hydroxide solution at pH 7.0) was then added to this mixture by adding 200 mL of oAB STOCK SOLUTION. There was briefly precipitation of calcium ortho-aminobenzoate. The concentration of dissolved ortho-aminobenzoic acid measured in the aqueous phase was 18.0 g/L. The solids fraction of the mixture was filtered off and dried at 80° C. for 48 h. In this way, 110 g of dried solid material was obtained. 20.0 g of that was added to 50.0 mL of AMMONIUM STOCK SOLUTION 1, the mixture was stirred and the concentration of dissolved ortho-aminobenzoic acid was determined. The latter was 146 g/L.
48.0 g of anhydrous calcium chloride was added to 800 mL of water. The pH was adjusted to a value of 7.0 by adding hydrochloric acid. […] The concentration of dissolved ortho-aminobenzoic acid measured in the aqueous phase was 18.0 g/L. The solids fraction of the mixture was filtered off and dried at 80° C. for 48 h. […] 20.0 g of that was added to 25.0 mL of AMMONIUM STOCK SOLUTION 2, the mixture was stirred and the concentration of dissolved ortho-aminobenzoic acid was determined. […]

calcium ortho-aminobenzoate
concentration of dissolved ortho-aminobenzoic acid in the aqueous phase ([1]; 3.00 g dried salt in 50 mL demineralized water): 17500 µg/mL
concentration of dissolved ortho-aminobenzoic acid in the aqueous phase ([1]; 3.00 g dried salt in 100 mL demineralized water): 17000 µg/mL
concentration of dissolved ortho-aminobenzoic acid measured in the aqueous phase after precipitation ([2]; 1.00 L fermentation broth): 18000 µg/mL
concentration of dissolved ortho-aminobenzoic acid measured in the aqueous phase after precipitation ([2]; 800 mL water): 18000 µg/mL
